## Apparent affinities of Ab-14 variants for a coronavirus HR2 peptide

Reference: Li et al. 2023, doi:10.1038/s41467-023-39022-2. File: FLAb, binding data.

All variants were tested on one target, the spike HR2 peptide PDVDLGDISGINAS (SARS-CoV-2).

Ab-14 is the parent antibody, in scFv form: VH, then the linker GGGGSGGGGSGGGGS, then VL. The light chain is unchanged in all variants.
VH: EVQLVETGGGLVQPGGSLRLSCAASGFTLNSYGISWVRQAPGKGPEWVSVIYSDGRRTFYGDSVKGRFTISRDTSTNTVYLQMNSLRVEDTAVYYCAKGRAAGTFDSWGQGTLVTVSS
VL: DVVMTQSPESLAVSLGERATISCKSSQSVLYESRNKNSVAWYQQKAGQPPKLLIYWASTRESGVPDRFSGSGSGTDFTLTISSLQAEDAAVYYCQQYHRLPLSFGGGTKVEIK

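This is the validation round: designs drawn from the data on random variants, tested in the same kind of assay. Several design methods are mixed in this list. The scFvs were displayed on barcoded MATa yeast, the peptide on MATalpha yeast. Pairs that bind mate more often; barcode pairs of the diploids are counted by sequencing. The ratio of observed to expected reads was calibrated, replicate by replicate, on BCL2-family standards whose Kd was known from biolayer interferometry. Each pool was mated in six replicate cultures.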

Each variant is given by its three heavy chain CDRs, as the data file delimits them; those of the parent are GFTLNSYGIS, VIYSDGRRTFYGDSVK, GRAAGTFDS. Scale: log10 of Kd in nM, estimated from mating counts; low values are strong binders. Where no diploid with the target was found in that replicate, the entry reads "n.d.": below detection, most likely a poor binder, though not proof of it. Where one sequence has several entries in the source, the replicates are listed entry by entry, parted by semicolons. In the paper, a design with two or fewer of six values counts as a poor binder. The range of this assay differs from that of the first round, and the authors advise against merging the two. Nonspecific signal, from three strains lacking the peptide, appeared in 1% of pairings of all heavy chain designs, centred on 2.08 (5% of these signals below 0.84); values are not corrected for it.

| replicates, log10 nM | CDR-H1 | CDR-H2 | CDR-H3 |
|---|---|---|---|
| 0.74 0.48 0.62 0.59 0.60 0.29; n.d. n.d. n.d. n.d. n.d. n.d. | GFTLNEYGIS | VIYSDGRRTFYGDSVK | GRAAGTFDS |
| n.d. n.d. n.d. n.d. n.d. n.d. | GNTLDEYGIS | VIYADGSRVAYADKFK | GMDVGTFDQ |
| -0.37 -0.07 -0.34 -0.78 -0.06 0.42 | GFDLNEYGIS | VIYADGMRTAYSDKVK | GNVAGTFDV |
| 0.19 0.28 0.30 0.18 0.09 0.40 | GFDLNEYGIS | VIYADGRRTFYIDSVK | GTAAGTFDM |
| n.d. 3.28 n.d. n.d. n.d. n.d. | GFNLNDYGIS | VIYADGHRRSYVDNVK | GHLAGTFFM |
| 0.07 -0.49 -0.65 -0.48 -0.52 0.15 | GFDLNEYGIS | VIYADGMRTYYADDVK | GNEAGTFDV |
| 0.35 0.38 0.20 0.09 0.30 0.42 | GFSLDDYGIS | VIYADGRRTMYAESVK | GQIAGSLSN |
| 0.07 -0.11 -0.31 0.02 -0.10 -0.05 | GFDLDEYGIS | VIYADGVRTAYSDSVK | GEVAGTFDI |
| n.d. n.d. n.d. 0.16 n.d. n.d. | GFWLNEYGIS | VIYSDGRRTFYGDQVK | GRTAGTFDS |
| n.d. n.d. n.d. n.d. n.d. n.d. | GFTLNSYGIS | VIYSDGRRTFYGDKVK | GRAAGTMDS |
| n.d. n.d. n.d. n.d. n.d. n.d. | GNNLEEYGIS | VIYADGMRTAAVDSVK | GDQSGTVVY |
| n.d. n.d. n.d. n.d. n.d. n.d. | GFNLDEYGVS | VIYADGKRCQYTNNVK | GENAGFFML |
| n.d. n.d. n.d. n.d. n.d. n.d. | GFTLNDYGIS | VIYSDGRRTFYGDSVK | GRNAGTFES |
| n.d. n.d. n.d. n.d. n.d. 2.79 | GFSLEEYGIS | VIYADGMRTFYTDKVK | GNLDAQEGY |
| n.d. n.d. n.d. n.d. n.d. n.d. | GFTLNSYGYS | VIYSDGRRTFYGDGVK | IRAAGTFIK |
| n.d. n.d. 2.05 n.d. 1.97 2.08 | GFKLNSYGIS | VIYSDGRRTFYGDSVK | GKQAGTFDS |
| n.d. n.d. n.d. n.d. n.d. n.d. | GFTLNEYGIS | VIYSDGRRTFYGDSVK | GRAAGTFTM |
| 0.77 0.33 0.96 0.41 1.07 1.17; 0.20 0.18 0.75 0.52 0.79 1.02; 0.87 1.34 0.45 1.12 0.94 1.35; 0.91 1.18 1.03 0.68 1.03 0.74 | GFTLNSYGIS | VIYSDGRRTAYGDDVK | GKAAGTFDS |
| n.d. n.d. n.d. n.d. n.d. n.d. | GFDLQEYGIS | VIYADGLREAYSEKVK | GQLAGYFSF |
| -0.19 -0.29 -0.15 -0.38 -0.15 -0.16 | GFSLNDYGIS | VIYSDGRRTFYGDSVK | GRTAGTFDT |
| n.d. n.d. n.d. n.d. n.d. n.d. | GFTLNSYGIS | VIYADGRRTFYGDSVK | GRLAGTFKS |
| 2.49 0.95 0.82 0.42 0.63 0.80 | GFDLEKYGIS | VIYADGRRSVYADDVK | GMLGATNGV |
| n.d. n.d. 2.36 n.d. n.d. n.d. | GFDINEYGIS | VIYADGNRTMYQDQVK | GGNGGSFVL |
| -0.54 -0.26 0.24 -0.57 -0.19 -0.28 | GFDLNEYGIS | VIYADGRRTFYTDSVK | GAQAGTFDQ |
| 0.00 0.30 0.46 -0.34 0.48 0.28 | GFSLNSYGIS | VIYSDGRRTFYSDSVK | GRTAGTFDS |
| -0.53 0.11 -0.76 -1.07 -0.43 -0.56 | GFDLDEYGIS | VIYADGMRKAYADSVK | GNVAGTFDI |
| 1.39 1.86 n.d. 1.66 1.68 2.53 | GFSLNSYGIS | VIYSDGRRTFYKDSVK | GQTAGTFDS |
| 0.74 n.d. 0.13 0.05 2.03 1.70 | GFNLNSYGIS | VIYSDGRRTSYDDSVK | GQAAGTFDS |
| n.d. n.d. n.d. n.d. n.d. n.d. | AFNLEDYGIS | VIYADGHRASYVESVK | GGLAGTFVI |
| n.d. n.d. n.d. n.d. n.d. n.d. | GQDLNEYGIS | VIYADGQRTSYVQSVK | GAGDITGLV |

Excerpt, the first 4 entries:

CDR-H1,CDR-H2,CDR-H3,"replicates, log10 nM"
GFTLNEYGIS,VIYSDGRRTFYGDSVK,GRAAGTFDS,0.74 0.48 0.62 0.59 0.60 0.29; n.d. n.d. n.d. n.d. n.d. n.d.
GNTLDEYGIS,VIYADGSRVAYADKFK,GMDVGTFDQ,n.d. n.d. n.d. n.d. n.d. n.d.
GFDLNEYGIS,VIYADGMRTAYSDKVK,GNVAGTFDV,-0.37 -0.07 -0.34 -0.78 -0.06 0.42
GFDLNEYGIS,VIYADGRRTFYIDSVK,GTAAGTFDM,0.19 0.28 0.30 0.18 0.09 0.40